Laboratory results reported in US10912774B2, “Pyrimidine FGFR4 inhibitors” (priority 2013, dated 2021).

Key:
Design in all cases: species or system nude mice
HEP3B tumor xenografts = experiment: In vivo efficacy, HEP3B hepatocellular carcinoma xenograft; settings: among the three models
HUH7 tumor xenografts = experiment: In vivo efficacy, HUH7 hepatocellular carcinoma xenograft; settings: among the three models
JHH7 tumor xenografts = experiment: In vivo efficacy, JHH7 hepatocellular carcinoma xenograft

## C=CC(=O)Nc1cc(N2CCN(CC)CC2)ccc1Nc1cc(N(C)C(=O)Nc2c(Cl)c(OC)cc(OC)c2Cl)ncn1 [Compound 108, N-(2-(6-(3-(2,6-Dichloro-3,5-dimethoxyphenyl)-1-methylureido)pyrimidin-4-ylamino)-5-(4-ethylpiperazin-1-yl)-phenyl)acrylamide]
HEP3B tumor xenografts
  sensitivity of the tumor model to the compound: most sensitive
HUH7 tumor xenografts
  sensitivity of the tumor model to the compound: intermediate sensitivity
JHH7 tumor xenografts; JHH7 xenograft, 12.5, 25 and 37.5 mg/kg
  tumor response over all dose levels: Progressive Disease in all dose levels tested
JHH7 tumor xenografts; JHH7 xenograft, among the three models
  sensitivity of the tumor model to the compound: least sensitive
